## Binding of CDR-mutated scFvs to a peptide of the spike HR2 region

The measurements come from Engelhart et al. 2022 (doi:10.1038/s41597-022-01779-4) through the FLAb antibody collection.

All variants were tested on one target, the spike HR2 peptide PDVDLGDISGINAS (SARS-CoV-2).

Parent scFv Ab-95: VH joined to VL by a (GGGGS)3 linker. Changes lie in the light chain CDRs alone.
VH: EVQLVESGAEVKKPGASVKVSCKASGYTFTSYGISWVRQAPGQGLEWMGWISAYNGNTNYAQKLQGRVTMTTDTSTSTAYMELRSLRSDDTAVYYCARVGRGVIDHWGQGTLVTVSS
VL: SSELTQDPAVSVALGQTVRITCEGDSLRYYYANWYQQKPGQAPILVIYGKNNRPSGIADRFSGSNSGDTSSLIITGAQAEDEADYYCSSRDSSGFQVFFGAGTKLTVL

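The parent was found by panning a naive human phage display library on the peptide. Variants in AAYL52 differ from the parent at up to three CDR positions; double and triple changes were sampled at random. In AlphaSeq, yeast of one mating type display the scFv and yeast of the other type display the target. After mating in shaken culture at 30 °C for 16 h, diploids were selected and their barcode pairs sequenced. Read counts were normalised to the haploid input and turned into Kd by a linear fit to BCL2-family pairs of known affinity, for each replicate. Mating was done three times.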

Variants are written as CDR1, CDR2 and CDR3 of the light chain (limits as in the source). Parent: EGDSLRYYYAN, GKNNRPS, SSRDSSGFQVF.
Scale: log10 of Kd in nM, estimated from mating counts; low values are strong binders.
A pair that was not seen in that replicate is written "ND"; this usually means weak binding, but a binder can also be missed.
Nonspecific signal, from three strains lacking the peptide, appeared in 28% of pairings of library AAYL52, centred on 3.91 (5% of these signals below 2.90); values are not corrected for it. Also given: how often the same scFv was detected with the empty control strains, with their mean in brackets.
In this assay the parent's reference entry averaged 2.31; its copy inside this library read 2.25.

CDR-L1	CDR-L2	CDR-L3	replicates, log10 nM	empty controls
EADMLRYYYAN	GKNNRPS	SSRDSSGKQVF	4.93 / 4.42 / ND	1/9 (3.05)
EGDSGRYYYAN	GKNNMPS	SSRDSLGFQVF	5.45 / ND / 3.86	4/9 (3.46)
EGVSLRYYYAN	GKNNRPD	SSRWSSGFQVF	3.96 / 4.32 / 3.73	2/9 (5.39)
EGDSLRYYYAN	GKNNNIC	SSRDSSGFQVF	2.98 / 4.00 / 3.73	3/9 (4.27)
CGDSLRYQYAN	EKNNRPS	SSRDSSGFQVF	1.62 / 1.64 / 1.28	0/9
FGDSLRYRYAN	GKNNRPS	SSRDSSVFQVF	2.52 / 2.30 / 2.53	2/9 (3.70)
ENDRLRYYYAN	GKNNRPH	SSRDSSGFQVF	4.55 / ND / 3.76	4/9 (4.05)
EGDSSRYYYAN	GKNARPS	SSRDSSGFQHF	4.85 / ND / ND	5/9 (4.52)
WGDSKRYYYAN	GKNNRPS	SNRDSSGFQVF	ND / ND / ND	0/9
EGMSLRYYYAN	GKNNRPS	WSTDSSGFQVF	4.44 / 4.04 / ND	2/9 (3.39)
EGDSLDYSYAN	GKNNRPS	SSRDSSCFQVF	2.93 / 2.69 / 2.88	6/9 (3.72)
EGDSLSYYTAN	GKNNRPS	SSRDSSGFQVT	3.64 / 2.47 / 2.21	2/9 (3.77)
EGDKLRYEYAN	GKNNRPS	SSRLSSGFQVF	ND / ND / ND	2/9 (3.39)
ENDSLRYYYAN	GKFNRPS	SSRDVSGFQVF	ND / ND / ND	3/9 (4.12)
EGDSLRYYYAN	GKNNRPS	SSRDSSSFTVF	3.62 / 5.63 / 2.91	3/9 (4.15)
EGDSLRYYYAT	GKNERPS	DSRDSSGFQVF	ND / ND / ND	3/9 (3.84)
ECFSLRYYYAN	GKNNRPS	SSRDSSGFQRF	5.82 / ND / ND	3/9 (4.29)
EGECLRYYYAN	GKNNRPS	SSRDSSGFFVF	2.72 / ND / ND	3/9 (4.10)
EGDSFRYYYAN	GKNNKPS	SSRDQSGFQVF	3.26 / 3.41 / 3.04	5/9 (3.76)
EGDSLMYPYAM	GKNNRPS	SSRDSSGFQVF	4.37 / 3.98 / ND	4/9 (3.95)
EGDSLRYYYAN	GKNNRPC	SSRDSSGDQVQ	3.83 / ND / ND	1/9 (3.44)
EGDSLRYYYAN	GKNNRPS	STRDGSGFQSF	2.26 / 2.22 / 2.04	0/9
ETDSIRYYYAN	GKNNRPS	SSRDSSGFQRF	4.99 / 4.27 / ND	5/9 (3.92)
EGTSLRYYYAN	GKNNRPS	SSRDSLGFQVW	2.04 / 1.93 / 1.32	3/9 (3.50)
EGASLRYYYAN	GKNDRPS	SSRDSSGFQVF	1.88 / 1.84 / 1.43	3/9 (3.63)
EGDSLRYGYAN	GKNNRPS	SSRDSSGFQEC	1.83 / 1.63 / 1.19	1/9 (3.84)
EGDSLRSYYAA	GKNNRAS	SSRDSSGFQVF	4.55 / ND / ND	0/9
ERMSLRYYYAN	GKNNRPS	SCRDSSGFQVF	3.24 / 2.26 / 3.21	2/9 (4.62)
EGDSLRPYYAN	GKNNVPS	SSRDSSGFQVA	4.91 / ND / 3.76	2/9 (4.30)
EDDSLFYHYAN	GKNNRPS	SSRDSSGFQVF	2.62 / 2.59 / 2.52	1/9 (3.86)
EGEELRYYYAN	GKNNRPS	SSLDSSGFQVF	ND / ND / ND	0/9
EGDSLRYYYEN	GKVNRPS	SSRDSSGFQMF	ND / ND / ND	1/9 (3.87)
EGDSLRYYYHN	GKNNEPI	SSRDSSGFQVF	ND / ND / ND	2/9 (4.54)
EGDSLRYYYAN	GKNNRPS	CSRDSIGVQVF	4.82 / 4.15 / 3.76	3/9 (3.91)
NGDSLRYYYAN	GKNNRIS	SSRWSSGFQVF	3.50 / 3.91 / 3.05	3/9 (3.91)
EGDSYRYYPAN	IKNNRPS	SSRDSSGFQVF	2.96 / 4.75 / ND	4/9 (4.00)
KGDSLRYYYAN	GKNNRPE	SSRDSSGGQVF	3.05 / 2.58 / 2.34	0/9
EGDSLRNYYAN	GKNNRPS	VSRDSSLFQVF	2.03 / 1.85 / 1.16	2/9 (3.60)
EHDSLRYYYAN	QKNNRPS	SSRDSSGFQVF	4.05 / 3.07 / 4.25	2/9 (4.52)
EGDSLRYYYAH	NKNNRPS	SSRDSSGFQVL	ND / 3.96 / ND	1/9 (3.03)
EGDSLRYYYAN	GKHNRPS	SSNDSSGFQVF	4.10 / 5.78 / ND	5/9 (4.06)
EGDSLRYYYFN	GKNNRPS	SSVDSSGFQVF	4.05 / ND / ND	2/9 (4.20)
EGDSLRYYYAN	GINNRPS	SSGNSSGFQVF	2.92 / 3.13 / 4.03	4/9 (4.18)
EGGSLRYYYAN	GKGQRPS	SSRDSSGFQVF	2.20 / 2.33 / 1.89	3/9 (3.36)
EGDSLRYYYAN	GKNNRPS	SSRWSNQFQVF	1.74 / 1.43 / 1.19	5/9 (4.13)
EGDSWRYYYAN	GANNLPS	SSRDSSGFQVF	5.41 / 3.52 / 3.48	3/9 (4.40)
EGDSLRYTYAN	GKNNRPC	SSRDSSGFQVF	1.58 / 1.35 / 0.78	4/9 (4.15)
EGYSLRYYYAN	GKNNRPS	SSRDSSGFQQF	ND / ND / 4.35	2/9 (4.26)
EGDYLRYYYAW	GKNNRPS	SSRDSSGFQRF	3.70 / ND / ND	1/9 (3.85)
EGDSLRYYYGN	GKNTRPS	SSRDSSGCQVF	3.79 / 4.35 / 3.44	1/9 (3.96)
EGSSLRYYYAN	GGNNRPS	SSRDSSGFQVF	1.90 / 1.91 / 1.57	5/9 (4.46)
EGDSLRYYLAT	GKNNRPS	SSRDSSGFMVF	ND / ND / ND	1/9 (4.95)